Among the data in patent US10472347B2, “Aminopyrazine compounds with A2A antagonist properties” (Merck Sharp & Dohme Corp., priority 2014, dated 2019) are Ki and EC50 values, retold here.

This assay has as its target human A2a receptor (Homo sapiens, UniProt P29274). Description: A2a competition binding assay, Scintillation Proximity technology. Particulars: membranes from HEK293 cells expressing human A2a receptor. Here is the method:
Binding affinities of compounds of the invention for the human A2a receptor were determined in a competition binding assay using Scintillation Proximity technology. Thus, […] from HEK293 cells expressing the human A2a receptor were incubated with a compound of the invention at concentrations ranging from 3000 nM to 0.15 nM in a reaction mixture containing also 0.5 nM of a tritiated form of 5-amino-7-[2-phenethyl]-2-(furan-2-yl)-7H-pyrazolo[4,3-e][1,2,4]triazolo[1,5-c]pyrimidine (the tritiated compound) and 100 μg of wheat germ agglutin-coated yttrium silicate SPA beads for one hour at room temperature with agitation. The beads were then allowed to settle to the bottom of the wells for 1 hr, after which the membrane-associated radioactivity was determined by scintillation counting in a TopCount microplate reader. Ki values were determined using the Cheng-Prusoff equation.
HEK293 cells expressing the human, rat, dog or monkey adenosine 2a receptor (Purchased from Perkin-Elmer # RBHA2AM400UA).
The Tritiated compound was prepared in-house by MRL Radiochemistry according to published methods.
Wheat germ agglutinin-coated yttrium silicate SPA beads (GE Healthcare #RPNQ0023). Dilute to 25 mg/ml in assay buffer. […]
A curve fitting program (i.e., Prism, Activity Base, Chemcart) is used to determine the EC50. The Ki value is calculated using the Cheng-Prusoff equation. […]

As to `COC(=O)c1nc(Cl)c(-n2cccn2)nc1N`, the inhibition constant Ki (read-out: A2a Ki, Ki by Cheng-Prusoff equation) worked out at 1.91 µM.
In the case of `Cc1nc(C(=O)NC2CCc3cccnc32)c(N)nc1-c1ncco1` (centres unmarked), the half-maximal effective concentration (EC50) (read-out: A2a EC50, 0.5 nM tritiated ligand) was found to be 0.0014 µM.

What is called Ki is a dissociation constant, usually derived from enzyme kinetics or from competition with a known ligand. For orientation: EC50 means the concentration giving half of the maximal effect.
